Assay: Oral pharmacokinetics in dogs (Example 3)
Assay type: in vivo
Conditions: oral capsules

- CMax (maximum concentration) of GaQ3 in the plasma (10 mg/kg GaQ3, ICP-MS): 16.1 ng/mL
- AUC (area under the curve) of GaQ3 in the plasma (10 mg/kg GaQ3, plasma to 72 hours): 213.8 ng·h/mL
Substance: tris (8-quinolinolato) gallium (III) [unmodified crystalline drug]
